# Experimental data taken from PubChem BioAssay AID743266 (National Center for Advancing Translational Sciences (NCATS), 2014).
# Protein sequences, listed by entry. Tags and fused reporters are not part of them.
# UniProt Q03431, whole entry: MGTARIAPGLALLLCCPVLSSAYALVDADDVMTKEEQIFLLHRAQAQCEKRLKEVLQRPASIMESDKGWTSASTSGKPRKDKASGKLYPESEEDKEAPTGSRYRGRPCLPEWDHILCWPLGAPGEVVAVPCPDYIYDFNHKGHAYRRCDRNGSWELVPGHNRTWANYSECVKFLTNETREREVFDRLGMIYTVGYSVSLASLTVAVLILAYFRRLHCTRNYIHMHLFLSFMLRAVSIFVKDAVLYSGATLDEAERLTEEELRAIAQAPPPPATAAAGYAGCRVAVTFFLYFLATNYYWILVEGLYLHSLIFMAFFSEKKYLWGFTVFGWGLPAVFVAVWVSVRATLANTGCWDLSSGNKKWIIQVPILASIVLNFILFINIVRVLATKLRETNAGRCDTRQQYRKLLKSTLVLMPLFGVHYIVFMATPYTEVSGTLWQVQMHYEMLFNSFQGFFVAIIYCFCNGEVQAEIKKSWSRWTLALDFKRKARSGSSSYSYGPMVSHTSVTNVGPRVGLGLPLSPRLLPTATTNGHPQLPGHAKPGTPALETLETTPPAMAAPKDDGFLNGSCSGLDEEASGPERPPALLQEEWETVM
# The list shows a part of the results, in another mix than the full data. Calls of active or inactive are those of the source. The call rests on the fitted dose curve; in most records, active means well fitted activation curve with a large enough effect; inconclusive means small, poorly fitted or top-dose-only effect, or another doubt; inactive means no such curve, though single readings can be large or run the other way.
# Target: Parathyroid hormone/parathyroid hormone-related peptide receptor (Homo sapiens) (UniProt Q03431)
# Test: qHTS for PTHR1 Agonists: Primary Screen; further: nearly all actives have a fitted effect of over 55% in size
# Settings: HEK293 GP2 PTHR1 cells, GloSensor cAMP luminescence, 1 h; activation: at 115 µM (top of the series) unless noted
Compound,activation,outcome
O=C1CCN(Cc2ccccc2)CC1,inactive: -21.9%,
CCOc1ccc(C)cc1CN(CCCl)CCCl,inactive,
COc1ccccc1C(=O)NCC1(N2CCOCC2)CCCCC1,inactive: -26.7%,
CCCCn1nnnc1C(c1cc2ccccc2o1)N1CCC(n2c(=O)[nH]c3ccccc32)CC1 (stereo unspecified),inactive: -10.1%,
O=P1(N(CCCl)CCCl)SCCCS1,inactive,
CCCCOc1ccc(C(=O)NCC2(N3CCOCC3)CCCCC2)cc1,inactive,
O=C(NCC1(N2CCCCC2)CCCCC1)c1ccc(F)cc1,inactive,
COc1ccc(NC2CCN(CCc3ccccc3)CC2)c(OC)c1,inactive: -17.1%,
CCOC(=O)N1CCC(Nc2ccc(F)cc2)CC1,inactive: -53%,
O=c1[nH]c2ccccc2n1C1CCN(C(c2ccccc2)c2nnnn2C2CCCCC2)CC1 (stereo unspecified),inactive,
CCOC(=O)N1CCC(Nc2cccc(C)c2)CC1,inactive: -26%,
COc1cc(C(=O)NCC2(N(C)C)CCCCC2)ccc1OC(F)F,inactive: 2.63%,
O=c1[nH]c2ccccc2n1C1CCN(C(c2cccc3ccccc23)c2nnnn2C2CCCC2)CC1 (stereo unspecified),inactive: -14.5%,
CN(C)C1(CNC(=O)c2ccc(C(C)(C)C)cc2)CCCCC1,inactive: -26.8%,
COc1cccc(C(c2nnnn2C2CCCCC2)N2CCC(n3c(=O)[nH]c4ccccc43)CC2)c1OC (stereo unspecified),inactive: -15%,
CC(=O)N(c1ccccc1)C1CCNCC1,inactive: -11.9%,
CCC(c1nnnn1C1CCCCC1)N1CCC(n2c(=O)[nH]c3ccccc32)CC1 (stereo unspecified),inactive: -16%,
COc1cc(OC)cc(C(=O)NCC2(N3CCCCC3)CCCCC2)c1,inactive: -20.7%,
O=c1[nH]c2ccccc2n1C1CCN(C(c2ccnc3ccccc23)c2nnnn2C2CCCCC2)CC1 (stereo unspecified),inactive: -6.95%,
Cc1ccc(C(=O)NCC2(N3CCCCC3)CCCCC2)o1,inactive,
Fc1ccccc1NC1CCN(Cc2ccccc2)CC1,inactive: -17.9% [at 57.5 µM],
Cc1ccc(Nc2c([N+](=O)[O-])cc([N+](=O)[O-])cc2[N+](=O)[O-])cc1,inactive: -47.2%,
Cc1ccc(NC2(C#N)CCN(Cc3ccccc3)CC2)cc1,inactive: -0.495%,
Cc1ccccc1NC1(C#N)CCN(Cc2ccccc2)CC1,inactive,

Compound,activation,outcome
COc1ccc(C(c2nnnn2C2CCCCC2)N2CCC(n3c(=O)[nH]c4ccccc43)CC2)cc1 (stereo unspecified),inactive: -20.8%,
CCN1CCC(Nc2cccc(F)c2)CC1,inactive,
CC(C)(C)n1nnnc1C(c1ccnc2ccccc12)N1CCC(n2c(=O)[nH]c3ccccc32)CC1 (stereo unspecified),inactive: -6.22%,
Cc1ccccc1C(=O)NCC1(N(C)C)CCCCC1,inactive,
O=C(NCC1(N2CCCCC2)CCCCC1)c1ccco1,inactive,
CC(C)(C)c1ccc(C(=O)NCC2(N3CCOCC3)CCCCC2)cc1,inactive: -39.7%,
CN(C)c1ccc(C(=O)NCC2(N3CCCCC3)CCCCC2)cc1,inactive,
Cn1c(=O)[nH]cc(N(CCCl)CCCl)c1=O,inactive,
CCOc1ncccc1C(=O)NCC1(N2CCOCC2)CCCCC1,inactive: -19%,
CN1CCC(Nc2ccc(F)c(Cl)c2)CC1,inactive: 10.5%,
CC(C)(C)OC(=O)N1CCC(Nc2ccccc2)CC1,inactive: -18%,
O=C(O)C1(Nc2ccccc2)CCN(Cc2ccccc2)CC1,inactive,
NN(c1ccccc1)C1CCN(CCc2ccccc2)CC1,inactive: -2.16%,
O=c1[nH]c2ccccc2n1C1CCN(C(c2cc3ccccc3o2)c2nnnn2C2CCCC2)CC1 (stereo unspecified),inactive: -10%,
CCCOc1ccc(C(=O)NCC2(N(C)C)CCCCC2)cc1,inactive: -10.7%,
COc1cc(C(=O)NCC2(N3CCOCC3)CCCCC2)cc(OC)c1OC,inactive,
COc1cc(OC)cc(C(=O)NCC2(N3CCOCC3)CCCCC2)c1,inactive: -1.45%,
COc1cccc(C(c2nnnn2C2CCCC2)N2CCC(n3c(=O)[nH]c4ccccc43)CC2)c1OC (stereo unspecified),inactive: -20.1%,
COc1cccc(C(=O)N(c2cc(C)cc(C)c2)C2CCN(C(=O)OC(C)(C)C)CC2)c1,inactive: -8.62%,
CCC(CO)(C(=O)OC1CN2CCC1CC2)c1ccccc1 (stereo unspecified),,inactive [at 57.5 µM]
CN1CCC(Nc2ccc(Cl)cc2)CC1,inactive,
CCCCn1nnnc1C(c1ccccc1)N1CCC(n2c(=O)[nH]c3ccccc32)CC1 (stereo unspecified),inactive: -18.4%,
COc1cc(C(=O)NCC2(N3CCOCC3)CCCCC2)cc(OC)c1C,inactive,
O=C(NCC1(N2CCOCC2)CCCCC1)c1cc(Br)ccc1Cl,inactive,

Compound,activation,outcome
O=c1[nH]c2ccccc2n1C1CCN(C(c2cccs2)c2nnnn2C2CCCCC2)CC1 (stereo unspecified),inactive: -15.6%,
COc1ccc(C(=O)NCC2(N3CCOCC3)CCCCC2)cc1OC,inactive,
O=c1[nH]c2ccccc2n1C1CCN(C(c2ccnc3ccccc23)c2nnnn2C2CCCC2)CC1 (stereo unspecified),inactive,
CCOC(=O)N1CCC(Nc2ccc(C)cc2)CC1,inactive,
COc1cccc(C(c2nnnn2C(C)(C)C)N2CCC(n3c(=O)[nH]c4ccccc43)CC2)c1OC (stereo unspecified),inactive,
N/C(=N\O)c1c(N)no[n+]1[O-],inactive: 17.9% [at 57.5 µM],
CCc1cc(C(=O)NCC2(N3CCCCC3)CCCCC2)sc1C,inactive,
O=C(OC1CN2CCC1CC2)C1c2ccccc2C=Cc2ccccc21 (stereo unspecified),inactive,
O=c1[nH]c2ccccc2n1C1CCN(C(c2cccs2)c2nnnn2C2CCCC2)CC1 (stereo unspecified),inactive: -14.5%,
O=C(O)c1cccc(Nc2c([N+](=O)[O-])cc([N+](=O)[O-])cc2[N+](=O)[O-])c1,inactive: -3.95%,
CCCCn1nnnc1C(c1cccc(OC)c1OC)N1CCC(n2c(=O)[nH]c3ccccc32)CC1 (stereo unspecified),inactive: -20.1%,
N#Cc1ccc(C(=O)NCC2(N3CCCCC3)CCCCC2)cc1,inactive: -15.4%,
O=C(NCC1(N2CCOCC2)CCCCC1)c1ccccc1[N+](=O)[O-],inactive: -9.97%,
CC(C)(C)OC(=O)N1CCC(N(C(=O)c2ccccc2)c2ccc(Cl)cc2)CC1,inactive: -19.1%,
O=C(NCC1(N2CCOCC2)CCCCC1)c1ccc([N+](=O)[O-])cc1,inactive,
CCOC(=O)C(CC)C1=NC(C)(C)Cc2ccccc21.O=[N+]([O-])c1cc([N+](=O)[O-])c(O)c([N+](=O)[O-])c1 (stereo unspecified),inactive: -23.6%,
CN(C)C1(CNC(=O)c2cccc(C#N)c2)CCCCC1,inactive,
c1ccc(CN2CCC(Nc3ccccc3)CC2)cc1,inactive: -5.37% [at 57.5 µM],
O=c1[nH]c2ccccc2n1C1CCN(C(c2ccccc2)c2nnnn2C2CCCC2)CC1 (stereo unspecified),inactive: -12.7%,
CCCN1CCC(Nc2cc(OC)cc(OC)c2)CC1,inactive: -1.26%,
Cc1cc(N(CCCl)CCCl)ccc1C=O,inactive,
O=C(NCC1(N2CCOCC2)CCCCC1)c1ccccc1,inactive,
CC(C)(C)n1nnnc1C(c1cccc2ccccc12)N1CCC(n2c(=O)[nH]c3ccccc32)CC1 (stereo unspecified),inactive: -18.5%,
